Patent publication US20260199359A1 (INCYTE CORPORATION, priority 2021, published 2026)

Experiment: Apparent pH of solvent systems before API addition and of saturated supernatant
Format: physicochemical
Conditions: for Vehicle pH: before API addition; for Supernatant pH: saturated with ruxolitinib phosphate
[1] = SSAG01 with 3.50% w/w of the named base
[2] = SSCR01 with 3.50% w/w of the named base
[3] = SSNA01 with 3.50% w/w of the named base

OCCN(CCO)CCO
Vehicle pH [1]: 10.31 | Supernatant pH [1]: 4.27 | Vehicle pH [2]: 9.63 | Supernatant pH [2]: 3.43 | Vehicle pH [3]: 9.11 | Supernatant pH [3]: 4.35
